Measured values published in US20120190579A1, “Functionalisation of Solid Substrates” (priority 2009, published 2012).
Entries after “also recorded” stand apart in the source; their conditions may differ.

Experiment: Glutathione-mediated cleavage of protein adduct at physiologically relevant glutathione concentration (LC-MS)
Assay type: physicochemical
Conditions: glutathione 5 mM, 0° C., 4 h, pH 8.0, LC-MS

GrB2-SH2 Domain L111C/Dibromomaleimide/Glutathione Adduct
cleavage of adduct to GrB2-SH2 domain L111C: GrB2-SH2 domain L111C was the only protein species present; also recorded: quantitative
